Reference: patent publication US8686113B2 (priority 2009, dated 2014)

Test system: SH-SY5Y cells
Type: cell-based
Conditions: human, 24 h, 400 µg/mL
Protocol: The cytotoxicity of the peptides, peptidomimetics and penetratin constructs was determined with the “Cell Proliferation Kit I” from the company Roche Diagnostics GmbH (Mannheim, Germany). The method is based on reduction of the yellow methylthiazolyldiphenyl tetrazolium bromide (MTT) by cellular oxidoreductases of metabolically active cells (Vistica D T et al. Tetrazolium-Based Assays for Cellular Viability-A Critical Examination of Selected Parameters Affecting Formazan Production. Cancer Research 51: 2515-20, 1991; Slater T F, Sawyer B, & Strauli U. Studies on Succinate-Tetrazolium Reductase Systems. 3. Points of Coupling of 4 Different Tetrazolium Salts. Biochimica et Biophysica Acta 11: 383-&, 1963; Berridge […]. […] Archives of Biochemistry and Biophysics 303: 474-82, 1993). The formation of the water-insoluble purple-colored formazan product is proportional to the number of viable cells and can be detected photometrically after cell lysis. Cell culture was carried out in cell culture bottles (25 cm^2) with a filter cap or in 96-well microtiter plates (Greiner Bio-One GmbH, Frickenhausen, Germany) at 37° C. under 5% CO2 and 95% air humidity. All media and additives were obtained from PAA Laboratories (Pasching, Austria). […] HeLa or SH-SY5Y cells were plated out in sterile 96-well microtiter plates with a concentration of 2×10^4 cells/well and were incubated overnight. […]

## RQIKIWFQNRRMKWKKC(CH2CO-ffSGDRSGYSSRGS-OH)-OH [SEQ ID NO. 106]
  proportion of growing SH-SY5Y cells: 70%
